Entries after “also recorded” stand apart in the source; their conditions may differ.
Columns and labels:
[1] = tested on: ABCG5 gene expression in liver; assay: Liver gene expression by RT-PCR in diet-induced obese hamsters: ABCG5; assay type: in vivo, male Golden Syrian hamsters; conditions: 10 nmol/kg SC daily for 21 days, as opposed to semaglutide and vehicle
Protocol: The study was conducted in male Golden Syrian hamsters placed on a free choice diet (free choice between a chow diet with normal tap water or a high fat/cholesterol diet (Safe Diets, 40.8% fat, 14.8% protein, 44.4% carbohydrates and 0.5% cholesterol, 4444.2 kcal/kg diet) with 10% fructose enriched tap water (0.4 kcal/L) provided ad libitum for a minimum of 20 weeks prior to the study start and until the end of the experiment. After randomization based on body weight, hamsters were assigned to three groups of 5 animals receiving vehicle, pemvidutide (10 nmol/kg) or semaglutide (10 nmol/kg) administered subcutaneously daily for 21 days. After 21 days, hamsters were sacrificed, and livers were collected. Total RNA was extracted from frozen liver tissue before measuring gene expression by RT-PCR across a range of markers including CYP7A, ABCA1, ABCG1, ABCG5, ABCG8, SREBP1c, SRB1 and LDL-R.

The chains behind the UniProt entries cited, without tags or fusion partners. Residues count along the entry.
UniProt P43220, 24-463: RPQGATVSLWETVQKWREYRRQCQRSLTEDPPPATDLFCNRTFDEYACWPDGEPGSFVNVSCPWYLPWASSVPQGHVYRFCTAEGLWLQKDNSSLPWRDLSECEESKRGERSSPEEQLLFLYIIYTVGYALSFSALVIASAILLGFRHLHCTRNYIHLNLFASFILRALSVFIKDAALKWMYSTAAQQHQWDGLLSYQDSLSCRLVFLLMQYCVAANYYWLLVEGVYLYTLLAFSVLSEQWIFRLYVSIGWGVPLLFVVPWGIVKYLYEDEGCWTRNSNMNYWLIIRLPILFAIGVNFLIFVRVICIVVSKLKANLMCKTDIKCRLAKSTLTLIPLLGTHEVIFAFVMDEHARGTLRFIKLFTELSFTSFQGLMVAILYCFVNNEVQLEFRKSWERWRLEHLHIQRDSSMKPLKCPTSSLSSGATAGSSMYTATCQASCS

[2] = tested on: plasma lipoproteins and 600 lipid species; assay: Phase I trial lipoprotein (1H-NMR) and lipidomic (UHPLC-MS) profiling of fasting plasma; assay type: in vivo, human; conditions: for serum lipid levels (glycerolipids, glycerophospholipids, sphingolipids; atherogenic lipid classes): within 12 weeks of treatment
Protocol: To test the lipid-lowering effects of Pemvidutide, an analysis of Phase I clinical trial (NCT0456124) data was carried out. The subjects with overweight/obesity (BMI 25-40 kg/m^2) were randomized at 1 site in Australia (NCT0456124). Subjects were randomized 4:1 pemvidutide:placebo, with placebos pooled. The pemvidutide doses were 1.2 mg, 1.8 mg, and 2.4 mg, administered weekly for twelve (12) weeks, with no dose titration or adjunctive lifestyle intervention (no diet or exercise interventions). […] Lipoprotein and glycoprotein profiling covering 33 lipoprotein related parameters was performed by ^1H-NMR on fasting plasma samples obtained at Day −1 (baseline), Day 43, and Day 84 from the 34 subjects who completed NCT0456124. Lipidomic profiling covering 600 lipid species was performed by ultra-high performance liquid chromatography-mass spectrometry on fasting plasma samples obtained at Day −1 (baseline), Day 43, and Day 84 from the 34 subjects who completed NCT0456124. For the lipid profiling, plasma fractionation was performed either using methanol to extract fatty acyls, bile acids, steroids, and lyso-glycerophospholipids, or using a chloroform/methanol mix to extract glycerolipids, cholesteryl esters, sphingolipids, and glycerophospholipids. Lipid classification followed the classification system proposed by Fahy et al. (J. Lipid Res. 2005; 46:839-861) and the LIPID MAPS initiative (http://www.lipidmaps.org. See FIG. 1.
The color code represents the log 2 (robust fold-change) with blue colors denoting reduced lipoproteins (negative fold-changes) and red colors denoting increased lipoproteins (positive fold-changes).
Given the observed changes in the total cholesterol, triglycerides and lipoproteins, an evaluation of the serum lipid composition covering 600 lipid species at Day −1 (baseline), Day 43, and Day 84 from the 34 subjects who completed NCT0456124 was performed. Results are presented in FIG. 3 as log 2 pairwise fold change with blue colors denoting a reduction in the lipid relative to baseline, and red an increase. The grey/black bars indicate significant p-values of Wilcoxon test.
The horizontal dashed line represents the lower limit of significance, while the vertical lines show a fold-change from baseline of ±0.75 on the log 2 scale. Responses in the upper left quadrant indicate particularly meaningful changes in the atherogenic lipids.

[3] = molecular target: glucagon-like peptide 1 receptor (GLP-1R) (Homo sapiens, UniProt P43220); assay: GLP-1R agonist activity (cellular assay); assay type: cell-based
Description: This disclosure relates to a dual agonist peptide(s) as well as pharmaceutical dosage formulations comprising, and methods for using, the same. The dual agonist peptides have affinity for, and in preferred embodiments about equal affinity for, glucagon-like peptide 1 receptor (GLP-1R) and glucagon receptor (GCGR), as may be determined using a cellular assay. In preferred embodiments, this disclosure provides methods for using pemvidutide (e.g., preferably pharmaceutical dosage formulation comprising SEQ ID NO: 1) that upon administration to a human being prevents and/or treats cardiovascular (CV) disease and/or CV disease-related conditions, symptoms, causes, and/or risks thereof. In some embodiments, the human being is overweight, obese (e.g., a body mass index of at least about 25), and may or may not suffer from type 2 diabetes. In preferred embodiments, the administration of pemvidutide as disclosed herein results in the weight loss and/or a reduction in waistline (“waist circumference”) measurements. In preferred embodiments, the CV disease-related conditions, including but not limited to high cholesterol, triglycerides, LDL and/or VLDL particle concentration and/or diameter, weight loss and/or reduction in waistline measurement, is significant as measured against an untreated or control (e.g., vehicle-treated) individual and/or population. […]

Structure (SMILES): CC[C@H](C)[C@H](NC(=O)[C@H](Cc1ccccc1)NC(=O)[C@H](CCC(=O)O)NC(=O)[C@@H]1CCCCNC(=O)CC[C@H](NC(=O)[C@H](CC(=O)O)NC(=O)[C@H](CC(C)C)NC(=O)[C@H](Cc2ccc(O)cc2)NC(=O)[C@H](CCCCN)NC(=O)[C@H](CO)NC(=O)[C@H](Cc2ccc(O)cc2)NC(=O)[C@H](CC(=O)O)NC(=O)[C@H](CO)NC(=O)[C@@H](NC(=O)[C@H](Cc2ccccc2)NC(=O)[C@@H](NC(=O)CNC(=O)[C@H](CCC(N)=O)NC(=O)C(C)(C)NC(=O)[C@@H](N)Cc2c[nH]cn2)[C@@H](C)O)[C@@H](C)O)C(=O)N[C@@H](CCCCNC(=O)[C@H]2O[C@@H](OCCCCCCCCCCCCCCCCCC(=O)O)[C@H](O)[C@@H](O)[C@@H]2O)C(=O)N[C@@H](C)C(=O)N[C@@H](C)C(=O)N1)C(=O)N[C@@H](CCC(N)=O)C(=O)N[C@@H](Cc1c[nH]c2ccccc12)C(=O)N[C@@H](CC(C)C)C(=O)N[C@@H](CC(C)C)C(=O)N[C@@H](CCC(N)=O)C(=O)N[C@H](C(N)=O)[C@@H](C)O [pemvidutide]
- ABCG5 gene expression in liver, fold change compared to vehicle [1]: significant increase
- atherosclerotic plaque forming phosphatidyl-ethanolamine (PE) glycerophospholipids level ([2]; 1.8 mg dose, vs baseline): significantly reduced
- pro-atherogenic lyso-PC levels ([2]; 1.8 mg dose, vs baseline): significantly reduced
- number of VLDL and LDL particles and number of smaller HDL particles (2D-NMR) ([2]; Day 43 and Day 84 vs Day −1, 1.2, 1.8, 2.4 mg): tend to be reduced
- reductions across multiple bioactive lipid classes compared to placebo ([2]; at Day 85): substantial and highly statistically significant reductions
- serum lipid levels (glycerolipids, glycerophospholipids, sphingolipids; atherogenic lipid classes) ([2]; vs baseline): significantly reduced
- serum lipid levels (glycerolipids, glycerophospholipids, sphingolipids; atherogenic lipid classes) ([2]; vs baseline, listed as Pemvidutide): significantly reduced; also recorded: statistically significant reductions
- EC50 [3]: ~0.04 nM

Source: US20250367263A9, “Therapeutic Regimens and Methods for Treatment of Cardiovascular Risk Factors using a GLP-1R and GCGR Agonist” (Spitfire Pharma LLC, priority 2022, published 2025)
